# Antibody variant affinities, Ab-91 heavy chain, assay 2

Binding partner: SARS-CoV-2 spike HR2 peptide, sequence PDVDLGDISGINAS.

Parent scFv Ab-91: VL joined to VH by a (GGGGS)3 linker. Changes lie in the heavy chain CDRs alone.
VL: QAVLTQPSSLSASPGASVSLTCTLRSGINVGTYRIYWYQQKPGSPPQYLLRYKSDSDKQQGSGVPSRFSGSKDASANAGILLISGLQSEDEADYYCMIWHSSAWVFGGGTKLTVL
VH: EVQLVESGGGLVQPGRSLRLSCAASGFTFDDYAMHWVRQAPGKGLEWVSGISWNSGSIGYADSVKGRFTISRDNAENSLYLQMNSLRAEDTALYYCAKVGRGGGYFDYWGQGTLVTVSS

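The parent was found by panning a naive human phage display library on the peptide. Variants in AAYL51 differ from the parent at up to three CDR positions; double and triple changes were sampled at random. Affinity was read by AlphaSeq, a pooled yeast mating assay with surface-displayed partners. The frequency of each diploid, read from paired DNA barcodes, reflects how well the two displayed proteins bind. Read counts were normalised to the haploid input and turned into Kd by a linear fit to BCL2-family pairs of known affinity, for each replicate. The assay was run in three technical replicates.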

Positions count from residue 1 of the parent VH; W53P puts P in place of W. Numbers give log10(Kd / nM), so 0 is 1 nM and 3 is 1 µM. Smaller is tighter. The mean shown is taken over the replicates in which the pair was detected. An entry "not detected" has no value in the source: the pair was not observed among the diploids in any replicate. This suggests poor binding but is not conclusive. Order: sorted from the lowest average up, undetected variants last. As a blank, each scFv also met three strains without target: over library AAYL51, 21% of these pairings were detected, typically at 4.54 and seldom below 3.26.

changes	mean log10 Kd (nM)	replicates with signal
W53P+V64F+Y108R	0.00	3 of 3
G102V+G104Y	0.88	3 of 3
T28W+Y108G	0.90	3 of 3
S63E+K65W+R101I	1.38	3 of 3
Y60F+V64L+G104A	2.62	1 of 3
W53F+D62R	2.67	3 of 3
F27M+G103T	3.14	3 of 3
R101C+G102C+G104E	3.25	1 of 3
F29C+G56E+I58E	3.39	3 of 3
T28K+S52R+G104D	3.61	1 of 3
D31P+I51G+G102L	3.79	2 of 3
S52H+S63D+Y105H	3.85	1 of 3
T28A+G50Y+Y105Q	3.91	1 of 3
G50F+I51W+K65N	3.96	1 of 3
D30K+A61W+Y105H	3.97	2 of 3
D30I+M34A+G56E	4.03	1 of 3
M34I+I51A+Y105A	4.14	1 of 3
D30S+Y32T	4.17	2 of 3
N54A+S57V+G100D	4.20	2 of 3
F27P+G50P+F106E	4.30	1 of 3
D31E+Y32I+G103N	4.31	1 of 3
F27A+N54V+G100S	4.48	1 of 3
Y32M+M34T+S57D	4.53	1 of 3
S52V+V99E+Y105T	4.58	1 of 3
H35L+I51V+F106A	4.61	3 of 3
T28Y+G56F+S57V	4.62	1 of 3
F29G+M34I+V64T	4.71	1 of 3
G50C+G56A+I58N	4.81	1 of 3
S52W+G56I+Y60G	4.93	3 of 3
F27I+S57W+G103M	4.99	3 of 3
G26H+H35Q+G56D	5.05	1 of 3
G26E+S57F+G59P	5.07	3 of 3
H35V+N54W+Y105C	5.07	1 of 3
G56H+S57K+G103N	5.10	3 of 3
Y32F+S57R+G102S	5.10	1 of 3

The remaining entries, values ahead:

mean log10 Kd (nM)	replicates with signal	changes
5.21	1 of 3	G26E+Y32D+F106W
5.27	1 of 3	D30W+G50T+D62G
5.28	2 of 3	G26D+I51F+S57E
5.29	1 of 3	N54W+R101S+Y105F
5.48	3 of 3	D30R+G50V+S63H
5.94	3 of 3	G26P+A61G+S63G
not detected	0 of 3	H35E+G50D+G56E
not detected	0 of 3	A33N+N54L+A61L
not detected	0 of 3	Y32H+G56M+G103M
not detected	0 of 3	G50L+Y60G+A61R
not detected	0 of 3	M34V+G100I+Y108R
not detected	0 of 3	F27G+G50H+F106G
not detected	0 of 3	Y60R+D107W+Y108P
not detected	0 of 3	I58K+Y60T+Y105N
not detected	0 of 3	S52A+S57L+G102E
not detected	0 of 3	T28N+A61V+V64G
not detected	0 of 3	A33Y+G50D+D107H
not detected	0 of 3	D30T+Y60L+V99N
not detected	0 of 3	D30I+N54L
not detected	0 of 3	S52H+D62C+V64I
not detected	0 of 3	G26F+G50D+N54V
not detected	0 of 3	A33W+I58H+Y108G
not detected	0 of 3	H35P+S52D+D107G
not detected	0 of 3	G56T+V99E+R101Y
not detected	0 of 3	S52D+G103D+G104P
not detected	0 of 3	T28M+G50C+W53M
not detected	0 of 3	D62N+K65G+F106D
not detected	0 of 3	W53F+I58V+G59P
not detected	0 of 3	S55W+K65E+G104D
not detected	0 of 3	G50H+R101H+Y108I
not detected	0 of 3	S52Y+V99T+G102V
not detected	0 of 3	S52N+N54G+K65R
not detected	0 of 3	W53R+G104V
not detected	0 of 3	Y32Q+H35Q+I51W
not detected	0 of 3	S63E+G103M
not detected	0 of 3	M34A+S52K+D107G

Again, the first 7 entries without any signal:

| changes | mean log10 Kd (nM) | replicates with signal |
|---|---|---|
| H35E+G50D+G56E | not detected | 0 of 3 |
| A33N+N54L+A61L | not detected | 0 of 3 |
| Y32H+G56M+G103M | not detected | 0 of 3 |
| G50L+Y60G+A61R | not detected | 0 of 3 |
| M34V+G100I+Y108R | not detected | 0 of 3 |
| F27G+G50H+F106G | not detected | 0 of 3 |
| Y60R+D107W+Y108P | not detected | 0 of 3 |

Reference: Engelhart et al. 2022, doi:10.1038/s41597-022-01779-4. File: FLAb, binding data.